The text below walks through data of ChEMBL document CHEMBL1157932, “Prenylated pterocarpans as bacterial neuraminidase inhibitors” (Bioorg Med Chem, 2010).

The chains behind the UniProt entries cited, without tags or fusion partners.
UniProt P0C6E9, whole entry: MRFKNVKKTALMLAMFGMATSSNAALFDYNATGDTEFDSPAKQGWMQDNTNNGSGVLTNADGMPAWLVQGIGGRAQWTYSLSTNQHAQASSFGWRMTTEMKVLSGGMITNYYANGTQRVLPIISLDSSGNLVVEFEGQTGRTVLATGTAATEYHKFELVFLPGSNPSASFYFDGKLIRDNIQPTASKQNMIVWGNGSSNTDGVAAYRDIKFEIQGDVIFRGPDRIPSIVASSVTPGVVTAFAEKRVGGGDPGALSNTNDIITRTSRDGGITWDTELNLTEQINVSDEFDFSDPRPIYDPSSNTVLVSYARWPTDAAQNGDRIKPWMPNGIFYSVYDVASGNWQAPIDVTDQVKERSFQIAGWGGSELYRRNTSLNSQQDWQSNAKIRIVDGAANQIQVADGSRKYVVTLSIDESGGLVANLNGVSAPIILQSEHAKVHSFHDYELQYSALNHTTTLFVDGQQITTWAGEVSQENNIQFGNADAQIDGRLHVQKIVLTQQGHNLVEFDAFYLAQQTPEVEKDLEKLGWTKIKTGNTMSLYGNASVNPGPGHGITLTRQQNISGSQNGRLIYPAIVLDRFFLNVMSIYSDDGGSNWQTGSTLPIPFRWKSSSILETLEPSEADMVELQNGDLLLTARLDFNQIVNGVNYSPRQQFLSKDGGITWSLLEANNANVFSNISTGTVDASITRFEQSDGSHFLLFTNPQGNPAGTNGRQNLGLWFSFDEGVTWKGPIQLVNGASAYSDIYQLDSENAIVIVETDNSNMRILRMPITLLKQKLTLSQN

This test deals with Sialidase (Vibrio cholerae serotype O1 (strain ATCC 39315 / El Tor Inaba N16961)) (UniProt P0C6E9). In words: Inhibition of Vibrio cholerae neuraminidase assessed as inhibition of 4-MU-NANA hydrolysis after 30 mins by spectrofluorimetry. The method in brief:
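V. cholerae enzyme (8.3 U) with compound in 50 mM MES, 6 mM CaCl2, pH 5.6, pre-incubated 30 min at 37 °C with shaking. 4-MU-NANA added at 25 µM final, 30 min at 37 °C, then quenched with 0.25 M glycine pH 10.0. Read at ex 360/em 440 nm, blank-corrected, expressed as % of no-inhibitor control, at least triplicate.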

On to `CC(C)=CCc1cc2c(cc1O)OC[C@H]1c3ccc(O)cc3O[C@@H]21` [CALOPOCARPIN], for which the Activity entry was “Dose-dependent effect”.
Regarding `CC(C)=CCc1c(O)ccc2c1O[C@H]1c3cc4c(cc3OC[C@@H]21)OC(C)(C)C(O)C4` (stereo partly drawn) [ERYTHRIBYSSIN L], the Activity entry was “Dose-dependent effect”.
For the molecule `CC(C)=CCc1cc2c(cc1O)O[C@H]1c3ccc(O)cc3OC[C@@H]21` [SOPHORAPTEROCARPAN A], the Activity result is “Dose-dependent effect”.
